Legend:
[1] = target: Clk3 (Homo sapiens, UniProt P49761); assay: In vitro kinase profiling; type: biochemical
Protocol: (§1) Several activated recombinant kinases including Clk1-4, SRPK1-2, JNK and ERK were incubated with a synthetic SR-rich substrate peptide in the present of 50 μM ATP and ^32P-ATP cocktail and kinase assay buffer (5 mM MOPS, pH 7.2, 2.5 mM β-glycerol-phosphate, 5 mM MgCl2, 1 mM EGTA, 0.4 mM EDTA, 0.05 mM DTT) for 20 minutes. Either DMSO or chlorhexidine was also added at various concentrations. The assay was terminated by spotting 10 μl of the reaction mixture onto phosphocellulose P81 plate, which was washed 3 times for 15 minutes each in a 1% phosphoric acid solution. The radioactivity on the P81 plate was counted in the presence of scintillation fluid in a TriLux scintillation counter.
(§2) . Therefore, its effects were tested on several kinases that are known to target SR proteins. […] . Whereas the other SR protein kinases (SRPK1 and SRPK2) as well as other unrelated kinases (ERK1 and JNK1) were not targeted by chlorhexidine (FIG. 7B). […] .

Protein sequences, listed by entry. Tags and fused reporters are not part of them. Lines headed by an entry give the natural chain unless they say otherwise; changes in a name come on top.
UniProt P49761, whole entry, species assumed: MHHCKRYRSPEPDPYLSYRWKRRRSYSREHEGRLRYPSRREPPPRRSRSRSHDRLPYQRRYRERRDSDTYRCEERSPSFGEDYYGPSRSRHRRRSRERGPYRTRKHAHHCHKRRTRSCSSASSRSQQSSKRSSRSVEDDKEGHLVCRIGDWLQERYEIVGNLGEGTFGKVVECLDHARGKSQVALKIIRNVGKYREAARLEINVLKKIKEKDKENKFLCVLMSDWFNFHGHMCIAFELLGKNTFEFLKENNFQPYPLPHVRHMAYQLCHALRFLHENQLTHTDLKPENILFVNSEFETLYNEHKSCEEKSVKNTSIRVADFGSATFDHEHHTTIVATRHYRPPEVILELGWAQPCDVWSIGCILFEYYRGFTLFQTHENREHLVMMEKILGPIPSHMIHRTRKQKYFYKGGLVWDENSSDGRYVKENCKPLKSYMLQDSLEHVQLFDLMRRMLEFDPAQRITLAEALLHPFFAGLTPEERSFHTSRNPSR
UniProt P49759: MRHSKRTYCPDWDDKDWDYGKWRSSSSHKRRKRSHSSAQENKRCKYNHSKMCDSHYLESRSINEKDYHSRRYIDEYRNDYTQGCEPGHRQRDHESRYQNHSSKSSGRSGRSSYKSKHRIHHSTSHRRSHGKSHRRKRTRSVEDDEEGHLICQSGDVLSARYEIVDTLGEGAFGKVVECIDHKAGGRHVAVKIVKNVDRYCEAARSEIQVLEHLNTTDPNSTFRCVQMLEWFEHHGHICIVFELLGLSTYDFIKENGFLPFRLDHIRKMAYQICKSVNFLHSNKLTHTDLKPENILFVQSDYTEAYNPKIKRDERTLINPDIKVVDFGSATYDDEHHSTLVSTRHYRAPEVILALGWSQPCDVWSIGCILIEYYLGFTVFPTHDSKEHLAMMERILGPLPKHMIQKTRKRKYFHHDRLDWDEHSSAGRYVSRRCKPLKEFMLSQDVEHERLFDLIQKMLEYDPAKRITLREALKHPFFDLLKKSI

[2] = target: Clk1 (Homo sapiens, UniProt P49759); assay: In vitro kinase profiling; type: biochemical
Protocol: as §1, §2

IC50 [1]: 15 µM
IC50 [2]: > 50 µM
Structure (SMILES): [H]/N=C(\N/C(=N/[H])NCCCCCCNC(=N)NC(=N)Nc1ccc(Cl)cc1)Nc1ccc(Cl)cc1 [chlorhexidine, (1E)-2-[6-[[amino-[[amino-(4-chloroanilino)methylidene]amino]methylidene]amino]hexyl]-1-[amino-(4-chloro-anilino)methylidene]guanidine]

Reference: patent US9650684B2, “Methods of identifying and using general or alternative splicing inhibitors” (The Trustees of the University of Pennsylvania, priority 2009, dated 2017)
